Experimental data: BindingDB's records for doi:10.1111/j.1476-5381.1996.tb15304.x (Smithkline Beecham Pharmaceuticals, 1996)

Protein sequences, listed by entry. Tags and fused reporters are not part of them.
UniProt P41595, whole entry: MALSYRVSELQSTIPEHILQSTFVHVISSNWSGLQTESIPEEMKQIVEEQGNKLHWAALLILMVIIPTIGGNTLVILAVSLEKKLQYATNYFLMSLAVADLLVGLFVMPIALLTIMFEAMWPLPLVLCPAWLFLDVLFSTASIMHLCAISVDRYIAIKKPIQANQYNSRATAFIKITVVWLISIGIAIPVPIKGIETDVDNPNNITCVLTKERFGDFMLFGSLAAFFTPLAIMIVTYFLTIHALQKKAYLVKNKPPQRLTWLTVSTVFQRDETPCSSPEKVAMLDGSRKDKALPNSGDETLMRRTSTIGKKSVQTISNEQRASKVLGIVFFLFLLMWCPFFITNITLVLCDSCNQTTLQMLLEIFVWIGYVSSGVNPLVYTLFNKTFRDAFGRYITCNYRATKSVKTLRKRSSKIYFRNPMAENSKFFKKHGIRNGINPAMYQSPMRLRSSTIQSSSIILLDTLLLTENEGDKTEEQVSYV

Target: 5-hydroxytryptamine receptor 2B (Homo sapiens, UniProt P41595)

## CC(N)Cc1c[nH]c2ccc(OCc3cccs3)cc12 (stereo unspecified) [NSC_5311036]
  Ki: 0.0794 µM
